Results published in patent US20130059783A1, “COMPOSITIONS AND METHODS FOR EXPANDING BFU-E CELLS” (priority 2010, published 2013).

Test system: mRNA expression in BFU-E cells
Assay: mRNA-Seq of BFU-E cells cultured 4 hours with or without Dex (Table S3)
Type: cell-based, mouse
Text: FIGS. 2A-2B. The effect of glucocorticoids on miRNA and mRNA expression in BFU-E cells determined by next generation sequencing. […] Both mRNAs and miRNAs were subjected to Illumina deep sequencing. […] (B) A plot similar to that in A for expression of individual mRNAs. mRNA expression was normalized using the RPKM method, which determines the relative expression of each gene to all expressed genes by giving each gene an RPKM count (number of uniquely aligning reads per kb exon per million total reads). […]
To minimize the risk of false positive GC target genes we chose to compare only highly expressed genes (≈10,000 genes with a multiplied RPKM count >4) (Mortazavi et al., 2008).
Samples for Paired-End mRNA-Seq were prepared using the Solexa kit according to the manufacturer's instructions with the exception that we extracted 300 bp bands, before and after the PCR step (Illumina). Images acquired from the Solexa sequencer were processed through the bundled Solexa image extraction pipeline version 1.4. mRNA-Seq reads were aligned to mouse NCBI build 37 (mm9) using ELAND, Briefly, the first 32 bases of a read were used as a seed. Each matched seed was then extended up to 36 bases and scored to break any ties between multi-matches. For mRNA expression counts, unique reads in the genome that landed within any exons of NCBI gene models (v37.1) were counted. The counts were normalized by the mRNA length to get the final RPKM values (i.e. reads per KB per million reads).

C[C@@H]1C[C@H]2[C@@H]3CCC4=CC(=O)C=C[C@]4(C)[C@@]3(F)[C@@H](O)C[C@]2(C)[C@@]1(O)C(=O)CO [Dex, dexamethasone]
Expression level log2((100 nM DEX)* (0 nM DEX)) (gene Aqp3): 4.27
Expression change log2 ((100 nM DEX)/(0 nM DEX))2 (gene Fam55c): 1.07
Expression change log2 ((100 nM DEX)/(0 nM DEX))2 (gene Fkbp11): 1.07
Expression change log2 ((100 nM DEX)/(0 nM DEX))2 (gene Glul): 1.03
Expression of mRNA in BFU-E after 4 h 100 nM DEX (RPKM) (gene Ier3, 100 nM DEX): 5.65 RPKM
Expression change log2 ((100 nM DEX)/(0 nM DEX))2 (gene Kit): 1.07
Expression of mRNA in BFU-E after 4 h 100 nM DEX (RPKM) (gene Klf5, 100 nM DEX): 4.68 RPKM
Expression change log2 ((100 nM DEX)/(0 nM DEX)) (gene Klf5, 100 nM vs 0 nM DEX): 1.89
Expression change log2 ((100 nM DEX)/(0 nM DEX)) (gene Ncoa7, 100 nM vs 0 nM DEX): 1.89
Expression change log2 ((100 nM DEX)/(0 nM DEX))2 (gene Zfp36l2): 1.35
